Earlier results as cited in PMC10714751 (Microbiology Spectrum, 2023).
Starred links: 1 amine or outer side, 2 acyl side, 3 side chain; linkers in the order of their positions; H or OH if unused. Positions of bridges follow the written chain, without caps; N, C: chain ends. Non-standard residues stand in square brackets, D forms with d. Residues, ends and D or L forms follow the SMILES beside them. *: point of attachment. dAsp(3R-OH) = N[C@@H](C(=O)O)[C@@H](O)C(=O)O; Palmitoleoyl = CCCCCC/C=C\CCCCCCCC(=O)*; X1 = NC[C@H](O)[C@@H](N[*:1])C(=O)[*:2]; X2 = CCC(C)(O)[C@H](N[*:1])C(=O)[*:2]; d(aIle) = CC[C@H](C)[C@@H](N)C(=O)O; d(aThr) = C[C@@H](O)[C@@H](N)C(=O)O; Myristoyl = CCCCCCCCCCCCCC(=O)*; dOrn = NCCC[C@@H](N)C(=O)O; hSer = N[C@@H](CCO)C(=O)O

Test system: clinical multidrug-resistant Acinetobacter strains
Conditions: cited from earlier work

Compound	activity against all tested clinical multidrug-resistant Acinetobacter strains
CCCCCCCCCCCCCC(=O)N[C@H](CCCN)C(=O)N[C@@H](CO)C(=O)N[C@H](C(=O)N[C@@H](C(=O)N[C@@H](C(=O)N[C@H]1C(=O)NCC(=O)N[C@@H](C(C)(O)CC)C(=O)N[C@H]([C@@H](C)CC)C(=O)N[C@@H](CCO)C(=O)N[C@@H](C)C(=O)N[C@H]([C@@H](C)CC)C(=O)N[C@@H](CCC(=O)O)C(=O)O[C@@H]1C)[C@@H](O)CN)[C@@H](O)C(=O)O)C(C)C (stereo partly drawn) [Turnercyclamycin A] (Myristoyl-[dOrn]SV[dAsp(3R-OH)][X1][d(aThr)]G[X2][d(aIle)][hSer]A[d(aIle)]E; ester 6-C)	active
CCCCCC/C=C\CCCCCCCC(=O)N[C@H](CCCN)C(=O)N[C@@H](CO)C(=O)N[C@H](C(=O)N[C@@H](C(=O)N[C@@H](C(=O)N[C@H]1C(=O)NCC(=O)N[C@@H](C(C)(O)CC)C(=O)N[C@H]([C@@H](C)CC)C(=O)N[C@@H](CCO)C(=O)N[C@@H](C)C(=O)N[C@H]([C@@H](C)CC)C(=O)N[C@@H](CCC(=O)O)C(=O)O[C@@H]1C)[C@@H](O)CN)[C@@H](O)C(=O)O)C(C)C (stereo partly drawn) [Turnercyclamycin B] (Palmitoleoyl-[dOrn]SV[dAsp(3R-OH)][X1][d(aThr)]G[X2][d(aIle)][hSer]A[d(aIle)]E; ester 6-C)	active
